Measured values taken from ChEMBL document CHEMBL1126118, “Synthesis and biological activity of ketomethylene pseudopeptide analogues as thrombin inhibitors” (J Med Chem, 1992).

Target: Prothrombin (Homo sapiens, UniProt P00734)
Assay: In vitro inhibitory activity against thrombin

Ki: 13.5 µM
Structure (SMILES): NC(N)=NCCCC(NC(=O)[C@@H]1CCCN1C(=O)C(N)Cc1cccc2ccccc12)C(=O)CCC(=O)N1CCCCC1 (stereo partly specified)
